Laboratory results from ChEMBL document CHEMBL1133103, “Design, synthesis, and structure-activity relationships of novel non-imidazole histamine H(3) receptor antagonists” (J Med Chem, 2000).

Amino acid sequences for entries named in this document (tags omitted). A change or cut given only in a name is not applied to a line headed by its entry.
UniProt Q9JI35: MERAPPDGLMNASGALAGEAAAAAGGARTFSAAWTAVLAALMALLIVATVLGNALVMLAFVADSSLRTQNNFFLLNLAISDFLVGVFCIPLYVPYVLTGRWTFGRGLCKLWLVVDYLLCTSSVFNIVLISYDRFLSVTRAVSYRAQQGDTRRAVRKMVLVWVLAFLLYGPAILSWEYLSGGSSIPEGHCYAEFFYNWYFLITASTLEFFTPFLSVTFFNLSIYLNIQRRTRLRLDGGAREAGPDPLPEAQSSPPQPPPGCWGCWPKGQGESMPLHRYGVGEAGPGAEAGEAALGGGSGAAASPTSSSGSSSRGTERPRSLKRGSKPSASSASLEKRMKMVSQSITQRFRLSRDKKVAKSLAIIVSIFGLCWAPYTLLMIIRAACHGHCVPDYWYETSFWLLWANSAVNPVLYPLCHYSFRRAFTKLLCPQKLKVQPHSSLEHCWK

Target: Histamine H3 receptor (Cavia porcellus, UniProt Q9JI35)
Test: Compound was tested in vitro against histamine H3 receptor mediated inhibition of cholinergic neurogenic contractions in isolated guinea pig ileum

O=[N+]([O-])c1ccc(OCCCN2CCC(Nc3nc4ccccc4s3)CC2)cc1
pA2: 7.67
